# Ab-14 light chain CDR variants: yeast mating affinities

Target peptide (SARS-CoV-2 spike, HR2 region): PDVDLGDISGINAS

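The starting antibody came from a phage panning campaign against this peptide. This is the validation round: designs drawn from the data on random variants, tested in the same kind of assay. Their group label is 14L_GP_Gen (GP: Gaussian process model; Gen: genetic algorithm; a sequence that several methods proposed may carry one label only). The scFvs were displayed on barcoded MATa yeast, the peptide on MATalpha yeast. Pairs that bind mate more often; barcode pairs of the diploids are counted by sequencing. Read counts were normalised to the haploid input and turned into Kd by a linear fit to BCL2-family pairs of known affinity, for each replicate. The assay was run in six technical replicates.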

Parent: Ab-14, a human scFv built as VH, a 15-residue (Gly4Ser)3 linker, VL. Only the CDRs of the light chain vary.
VH: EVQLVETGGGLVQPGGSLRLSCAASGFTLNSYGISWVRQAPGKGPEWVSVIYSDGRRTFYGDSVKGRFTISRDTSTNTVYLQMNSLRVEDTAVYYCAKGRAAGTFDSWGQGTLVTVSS
VL: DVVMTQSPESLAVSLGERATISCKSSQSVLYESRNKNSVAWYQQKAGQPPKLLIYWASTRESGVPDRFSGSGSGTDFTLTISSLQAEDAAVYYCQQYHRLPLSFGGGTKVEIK

Positions count from residue 1 of the parent VL; S25L puts L in place of S. Scale: log10 of Kd in nM, estimated from mating counts; low values are strong binders. A pair that was not seen in that replicate is written "nd"; this usually means weak binding, but a binder can also be missed. The parent sequence was in this pool as ten entries: three were never detected, three once, and four in most replicates, with averages from 0.34 to 2.37. The authors averaged sequences with at least three values out of six and counted those with two or fewer as poor binders. Nonspecific signal, from three strains lacking the peptide, appeared in 4% of pairings of all light chain designs, centred on 2.64 (5% of these signals below 1.59); values are not corrected for it. Also given: how often the same scFv was detected with the empty control strains, with their mean in brackets. The range of this assay differs from that of the first round, and the authors advise against merging the two.

| changes | replicates, log10 nM | empty controls |
|---|---|---|
| S25L+Q27S+V29W+W56N+T59Q | 0.23 0.15 0.40 -0.24 0.18 0.36 | 0/18 |
| S25L+Q27G+V29H+W56N | -0.04 -0.35 -0.28 -0.57 -0.44 -0.28 | 0/18 |
| K24Y+S25L+W56N+E61M | 0.06 0.08 -0.01 0.18 -0.02 0.10 | 3/18 (2.70) |
| S25L+V29E+W56N+S62L | -0.67 -0.54 -0.82 -0.81 -0.79 -0.73 | 0/18 |
| S25L+W56N+T59Q+S62A | -0.41 -0.35 -0.39 -0.56 -0.02 0.06 | 0/18 |
| S25V+Q27P+V29E+S38A+W56E | -0.01 -0.06 -0.23 -0.12 -0.17 -0.01 | 2/18 (2.90) |
| S25L+S26Q+V29H+W56N | -0.07 -0.05 -0.25 -0.05 -0.15 0.25 | 0/18 |
| S25L+W56S+E61Y | 0.05 -0.33 0.16 0.16 -0.31 0.19 | 0/18 |
| S25M+V29Y+W56N | 0.32 0.36 0.02 0.06 -0.04 0.23 | 1/18 (2.78) |
| S25L+S38N+W56E+T59K | 0.25 -0.07 0.21 0.22 0.20 0.50 | 2/18 (1.96) |
| S25L+S26M+V29H+W56N | 0.00 -0.02 -0.17 -0.11 -0.22 0.05 | 0/18 |
| S25L+S26E+L30P+W56N+T59Q | 0.78 0.65 0.87 0.81 1.13 0.75 | 0/18 |
| S25V+V29M+W56N+T59Q+E61L | -0.46 -0.26 -0.28 -0.68 -0.62 -0.40 | 2/18 (2.75) |
| S25L+N35M+W56N+E61S | -0.23 -0.26 -0.30 -0.25 -0.24 -0.18 | 0/18 |
| S25L+W56N+S62D+Q96D | 0.79 0.32 0.13 0.38 0.53 0.61 | 3/18 (3.70) |
| S25L+W56S+A57G | -0.23 -0.46 -0.43 -0.67 0.06 -0.44 | 0/18 |
| S25L+V29W+S38N+W56H | 0.40 0.88 0.00 0.14 -0.04 0.53 | 1/18 (1.62) |
| S25L+S26Q+V29D+W56N+E61C | 0.35 0.37 0.26 0.17 0.38 0.45 | 2/18 (2.22) |
| S25L+V29W+L30Q+W56N | 0.24 0.19 0.09 -0.04 0.14 0.12 | 1/18 (3.81) |
| S25L+S26M+V29N+W56N+T59Q | -0.21 -0.27 -0.45 -0.45 -0.30 -0.26 | 1/18 (2.70) |
| S25L+S26A+V29D+W56E | -0.16 -0.36 -0.32 -0.34 -0.22 -0.13 | 0/18 |
| S25F+S26M+V29W+W56N+T59Q | 0.17 0.20 -0.46 -0.26 0.04 0.26 | 2/18 (2.70) |
| S25L+V29Y+W56N+S62V | 0.42 0.20 0.04 0.01 0.02 -0.05 | 1/18 (2.33) |
| S25V+W56N+E61S | 0.27 0.20 0.06 -0.10 -0.01 0.31 | 2/18 (2.85) |
| K24H+S25L+W56N+S62D | 0.20 0.34 0.08 0.10 0.12 0.17 | 0/18 |
| S25V+S26Q+W56E | -0.45 -0.11 0.06 -0.35 -0.10 0.20 | 0/18 |
| K24I+S25L+V29W+W56N | 0.13 0.13 -0.01 -0.09 -0.04 -0.07 | 2/18 (3.06) |
| S25V+V29Q+W56N+T59Q+E61L | 0.54 0.35 0.23 0.22 0.38 0.35 | 0/18 |
| S25L+V29M+L30E+W56H | 0.14 -0.27 -0.26 -0.25 -0.36 -0.03 | 1/18 (2.12) |
| S25L+Y31M+W56E+Q96A | 0.54 0.27 0.90 0.75 0.80 nd | 0/18 |
| S25L+S26P+L30D+W56D | 0.10 -0.09 -0.25 -0.28 -0.19 -0.09 | 0/18 |
| S25L+S26Q+E32G+W56N | 0.05 -0.22 -0.28 -0.34 -0.21 -0.18 | 2/18 (3.89) |
| S25L+V29F+L30E+W56N | 0.45 0.36 0.46 0.56 0.33 0.82 | 1/18 (2.54) |
| S25L+L30E+S38N+W56N | 0.77 0.19 0.65 0.69 0.85 0.48 | 0/18 |
| S25L+W56N+Q96D | -0.20 -0.22 -0.08 0.15 -0.01 0.33 | 0/18 |
| K24Q+S25L+W56G | -0.31 -0.51 -0.42 -0.74 -0.53 -0.41 | 0/18 |
| S25V+S26P+W56N+A57G | -0.13 -0.11 -0.13 -0.23 -0.10 0.03 | 1/18 (4.41) |

A selection of 6 entries from above:

| changes | replicates, log10 nM | empty controls |
|---|---|---|
| S25L+W56S+A57G | -0.23 -0.46 -0.43 -0.67 0.06 -0.44 | 0/18 |
| S25V+S26P+W56N+A57G | -0.13 -0.11 -0.13 -0.23 -0.10 0.03 | 1/18 (4.41) |
| S25V+V29M+W56N+T59Q+E61L | -0.46 -0.26 -0.28 -0.68 -0.62 -0.40 | 2/18 (2.75) |
| S25V+V29Q+W56N+T59Q+E61L | 0.54 0.35 0.23 0.22 0.38 0.35 | 0/18 |
| K24Y+S25L+W56N+E61M | 0.06 0.08 -0.01 0.18 -0.02 0.10 | 3/18 (2.70) |
| S25M+V29Y+W56N | 0.32 0.36 0.02 0.06 -0.04 0.23 | 1/18 (2.78) |

Data: MIT Lincoln Laboratory AlphaSeq set, Li et al. 2023, doi:10.1038/s41467-023-39022-2, as distributed in FLAb.